Laboratory results reported in patent US8119640B2, “Hedgehog pathway antagonists methods of use” (The Board of Trustees of the Leland Stanford Junior …, priority 2008, dated 2012).

Tested on: Math1-cre:SmoM2 cerebellar GNPs
Assay: Math1-cre:SmoM2 cerebellar GNP proliferation
Format: cell-based, mice
Conditions: HPIs 10 μM, cyclopamine 5 μM, 24 h
Description: Analysis of Math1-cre:SmoM2 cerebellar GNP proliferation. To generate Math1-cre:SmoM2 tumors (11), a Math1-cre driver was used to conditionally express an activated Smo (SmoM2) allele. The Gt(ROSA)26Sortm1 (Smo/EYFP)Amc/J) mouse line was obtained from Jackson Laboratory (Bar Harbor, ME). […] Primary cultures from Math1-cre:SmoM2 tumors were established by triturating tumor tissue and plating the dissociated cells onto poly-D-ornithine-coated plates in DMEM-F-12 with N2 supplement, 25 mM KCI, and antibiotics. After culturing the cells for 24 h, they were treated with individual HPIs ([…]) for 24 h. Cell proliferation was then quantified by immunocytochemistry, and the expression of cyclin D1 and Gli1 were assessed by immunoblotting and RT-PCR, respectively. For immunocytochemistry, the primary cultures were fixed in 4% paraformaldehyde for 30 min at room temperature. […] Immunofluorescently stained cultures were imaged using a Nikon Eclipse E600 microscope equipped with a 20×objective. Approximately 30,000 cells were analyzed for each experimental condition. […] The resulting PCR products were analyzed on 2% agarose gels.

CC1=C2C[C@H]3[C@@H](CC=C4C[C@@H](O)CC[C@@]43C)[C@@H]2CC[C@]12O[C@@H]1C[C@H](C)CN[C@H]1[C@H]2C [cyclopamine, reference compound]
Proliferation of SmoM2-expressing GNPs (histone H3 phosphorylation): cyclopamine-resistant; also recorded: ineffective against either oncogenic lesion

Entries after “also recorded” stand apart in the source; their conditions may differ.
